Values quoted from earlier work as cited in PMC7150891, “Mertansine Inhibits mRNA Expression and Enzyme Activities of Cytochrome P450s and Uridine 5′-Diphospho-Glucuronosyltransferases in Human Hepatocytes and Liver Microsomes” (Pharmaceutics, 2020).

System: HER2-positive metastatic breast cancer
Settings: patients who received T-DM1 treatment; cited from earlier work

Substance: trastuzumab emtansine [T-DM1]
- Risk ratio of hepatotoxicity and thrombocytopenia: significantly higher
